Earlier results in patent publication US20180271470A1, “METHODS FOR QUANTIFYING PANCREATIC BETA CELL FUNCTION AND MASS PROPERTIES WITH RADIOMANGANESE POSITRON EMISSION TOMOGRAPHY” (Wisconsin Alumni Research Foundation, priority 2017, published 2018).

Protein sequences, listed by entry. Tags and fused reporters are not part of them.
UniProt Q05940, whole entry, species assumed: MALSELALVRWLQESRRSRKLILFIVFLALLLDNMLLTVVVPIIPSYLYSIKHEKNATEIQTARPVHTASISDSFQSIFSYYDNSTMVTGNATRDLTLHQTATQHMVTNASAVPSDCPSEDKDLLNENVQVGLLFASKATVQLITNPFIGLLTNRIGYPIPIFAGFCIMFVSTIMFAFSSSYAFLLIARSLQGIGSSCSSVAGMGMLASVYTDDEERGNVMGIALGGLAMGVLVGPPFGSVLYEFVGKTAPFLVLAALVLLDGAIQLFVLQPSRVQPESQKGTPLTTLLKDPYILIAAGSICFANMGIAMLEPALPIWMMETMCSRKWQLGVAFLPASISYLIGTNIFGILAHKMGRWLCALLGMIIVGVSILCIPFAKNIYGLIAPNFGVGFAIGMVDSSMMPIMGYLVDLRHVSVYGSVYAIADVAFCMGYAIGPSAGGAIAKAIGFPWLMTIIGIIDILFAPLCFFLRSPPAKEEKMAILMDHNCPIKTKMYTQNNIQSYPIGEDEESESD

Molecular target: type 2 vesicular transporter (VMAT2) (Homo sapiens, UniProt Q05940)
Settings: cited from earlier work

SMILES: COc1cc2c(cc1O[11CH3])CCN1CC(CC(C)C)C(O)CC21 (stereo not shown) [[^11C]-DTBZ, [^11C]-Dihydrotetrabenazine]
- affinity for VMAT2: high affinity
